# Antibody variant affinities, Ab-95 light chain, assay 2

Values reported by Engelhart et al. 2022, doi:10.1038/s41597-022-01779-4 (FLAb copy).

Binding partner: SARS-CoV-2 spike HR2 peptide, sequence PDVDLGDISGINAS.

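The parent was found by panning a naive human phage display library on the peptide. In library AAYL52, one, two or three CDR residues were substituted; doubles and triples were drawn at random. The assay is AlphaSeq: two haploid yeast populations carry antibody and antigen on their surface. Mating (16 h, 30 °C) was followed by selection of diploids and sequencing of their barcodes. The ratio of observed to expected reads was calibrated, replicate by replicate, on BCL2-family standards whose Kd was known from biolayer interferometry. Mating was done three times.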

Each scFv is VH, a (GGGGS)3 linker, VL, as in the parent Ab-95, and differs from it in the CDRs of the light chain only.
VH: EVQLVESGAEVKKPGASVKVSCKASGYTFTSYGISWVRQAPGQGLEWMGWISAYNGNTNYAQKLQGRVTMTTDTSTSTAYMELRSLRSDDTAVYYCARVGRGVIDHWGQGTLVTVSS
VL: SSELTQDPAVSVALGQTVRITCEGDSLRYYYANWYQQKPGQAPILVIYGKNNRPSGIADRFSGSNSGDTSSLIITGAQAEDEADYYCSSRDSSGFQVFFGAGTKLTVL

Substitutions are numbered in sequence along the VL above, starting at 1 (not Kabat).
Every variant below is changed at D25 of the VL (sequential numbering).
Kd is apparent (estimated from mating counts) and averaged on the log scale over replicates with a signal. Smaller is tighter.
"nd" marks a missing value. The strain was present, yet no cells mated with the target were sequenced in any replicate, which points to weak or no binding.
In this assay the parent's reference entry averaged 200 nM; its copy inside this library read 180 nM.

Variant D25S G49Q K50S showed 8.4 µM (2 of 3 replicates).
Variant D25L R53D F95R showed 5.3 µM (3 of 3 replicates).
Variant D25Y Y29A S55I showed 2.6 µM (3 of 3 replicates).
Variant D25R Y31P S55T showed 13 nM (3 of 3 replicates).
Variant D25G G49I S88I showed 210 µM (1 of 3 replicates).
Variant D25M D91R F95S showed 2.1 µM (3 of 3 replicates).
Variant D25A L27N P54E showed nd (0 of 3 replicates).
Variant D25K A32S Q96Y showed 3.2 µM (3 of 3 replicates).
Variant D25E A32W R53N showed 33 µM (2 of 3 replicates).
Variant D25L S88I R90G showed nd (0 of 3 replicates).
Variant E23P D25L Q96N showed nd (0 of 3 replicates).
Variant D25N G49S G94A showed nd (0 of 3 replicates).
Variant D25L L27Q P54D showed 56 µM (1 of 3 replicates).
Variant D25Y K50P V97P showed 840 nM (3 of 3 replicates).
Variant D25N Y29S N51E showed 110 nM (3 of 3 replicates).
Variant D25S L27W Q96M showed 9.4 µM (1 of 3 replicates).
Variant D25R Y30M K50Y showed 500 nM (2 of 3 replicates).
Variant D25T R90A showed 2.6 µM (1 of 3 replicates).
Variant E23G D25P N52I showed 120 nM (3 of 3 replicates).
Variant D25Q G49D S89M showed 3.0 µM (3 of 3 replicates).
Variant G24F D25W Y29C showed 220 µM (1 of 3 replicates).
Variant E23T D25H R90Y showed 1.6 µM (3 of 3 replicates).
Variant D25E S55K R90L showed 550 nM (3 of 3 replicates).
Variant D25G G49I S93K showed 130 µM (1 of 3 replicates).
Variant G24L D25P L27D showed 240 nM (3 of 3 replicates).
Variant D25N N52G F98S showed 2.0 µM (2 of 3 replicates).
Variant D25S S26L S88Q showed 16 µM (2 of 3 replicates).
Variant D25Y L27Q Y31L showed 1.4 µM (2 of 3 replicates).
Variant D25E S55A showed 59 nM (3 of 3 replicates).
Variant D25C Y29L R90D showed nd (0 of 3 replicates).
Variant D25A N33G F98N showed 810 nM (2 of 3 replicates).
Variant D25A Y29K A32G showed 780 nM (3 of 3 replicates).
Variant D25Q G49A V97R showed 2.9 µM (1 of 3 replicates).
Variant D25A R53W F98E showed nd (0 of 3 replicates).
Variant D25P N33L S92D showed 18 µM (2 of 3 replicates).
Variant D25T A32H S92L showed 13 µM (1 of 3 replicates).
Variant D25M Y30C F98K showed 6.6 µM (3 of 3 replicates).
Variant D25S N52I F98S showed 500 nM (3 of 3 replicates).
Variant D25K Y31C showed 200 nM (3 of 3 replicates).
Variant D25Q Y30G S93N showed 18 nM (3 of 3 replicates).
Variant D25S L27K R53D showed 19 µM (2 of 3 replicates).
Variant D25G Y29N N51M showed 2.6 µM (3 of 3 replicates).
Variant D25N L27V S92W showed 19 µM (2 of 3 replicates).
Variant D25W showed 1.0 µM (3 of 3 replicates).
Variant D25I Y30H showed 17 nM (3 of 3 replicates).
Variant D25L S88N F95K showed 1.2 µM (1 of 3 replicates).
Variant D25P L27H Y30P showed 250 nM (3 of 3 replicates).

The 3 strongest on average among those seen in every replicate, once more:

changes,apparent Kd,seen in
D25R Y31P S55T,13 nM,3/3
D25I Y30H,17 nM,3/3
D25Q Y30G S93N,18 nM,3/3

Nonspecific signal, from three strains lacking the peptide, appeared in 28% of pairings of library AAYL52, centred on 8.2 µM (5% of these signals below 800 nM); values are not corrected for it.